Literature values in US20030109678A1, “Methods and means for regulation of gene expression” (priority 2000, published 2003).

Protein sequences, listed by entry. Tags and fused reporters are not part of them.
UniProt P03372, whole entry G521R: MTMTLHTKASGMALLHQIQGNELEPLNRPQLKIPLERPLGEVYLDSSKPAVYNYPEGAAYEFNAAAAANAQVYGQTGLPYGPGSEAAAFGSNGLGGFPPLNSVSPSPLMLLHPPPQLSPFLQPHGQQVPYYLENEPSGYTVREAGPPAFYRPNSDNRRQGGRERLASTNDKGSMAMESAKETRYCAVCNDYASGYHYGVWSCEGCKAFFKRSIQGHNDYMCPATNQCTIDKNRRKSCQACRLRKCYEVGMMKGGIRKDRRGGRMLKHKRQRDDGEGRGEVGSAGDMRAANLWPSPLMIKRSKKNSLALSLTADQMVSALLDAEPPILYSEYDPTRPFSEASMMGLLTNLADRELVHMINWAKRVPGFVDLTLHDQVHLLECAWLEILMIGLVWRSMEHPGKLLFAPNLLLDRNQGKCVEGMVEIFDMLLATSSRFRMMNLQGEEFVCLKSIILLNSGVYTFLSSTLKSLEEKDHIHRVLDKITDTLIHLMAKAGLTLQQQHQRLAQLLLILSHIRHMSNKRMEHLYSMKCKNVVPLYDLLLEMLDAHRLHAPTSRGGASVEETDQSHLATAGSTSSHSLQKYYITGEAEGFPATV

Target: mutated form of the human estrogen receptor (ER), G521R mutation (Homo sapiens, UniProt P03372, G521R)

In the case of `O=C(c1ccc(OCN2CCCCC2)cc1)c1c(-c2ccc(O)cc2)sc2cc(O)ccc12` [raloxifen], the “binding by G521R ER” value is given as “efficiently binds”.
